{"sequences": {"note": "Protein sequences, listed by entry. Tags and fused reporters are not part of them. Lines headed by an entry give the natural chain unless they say otherwise; changes in a name come on top.", "UniProt Q12809": "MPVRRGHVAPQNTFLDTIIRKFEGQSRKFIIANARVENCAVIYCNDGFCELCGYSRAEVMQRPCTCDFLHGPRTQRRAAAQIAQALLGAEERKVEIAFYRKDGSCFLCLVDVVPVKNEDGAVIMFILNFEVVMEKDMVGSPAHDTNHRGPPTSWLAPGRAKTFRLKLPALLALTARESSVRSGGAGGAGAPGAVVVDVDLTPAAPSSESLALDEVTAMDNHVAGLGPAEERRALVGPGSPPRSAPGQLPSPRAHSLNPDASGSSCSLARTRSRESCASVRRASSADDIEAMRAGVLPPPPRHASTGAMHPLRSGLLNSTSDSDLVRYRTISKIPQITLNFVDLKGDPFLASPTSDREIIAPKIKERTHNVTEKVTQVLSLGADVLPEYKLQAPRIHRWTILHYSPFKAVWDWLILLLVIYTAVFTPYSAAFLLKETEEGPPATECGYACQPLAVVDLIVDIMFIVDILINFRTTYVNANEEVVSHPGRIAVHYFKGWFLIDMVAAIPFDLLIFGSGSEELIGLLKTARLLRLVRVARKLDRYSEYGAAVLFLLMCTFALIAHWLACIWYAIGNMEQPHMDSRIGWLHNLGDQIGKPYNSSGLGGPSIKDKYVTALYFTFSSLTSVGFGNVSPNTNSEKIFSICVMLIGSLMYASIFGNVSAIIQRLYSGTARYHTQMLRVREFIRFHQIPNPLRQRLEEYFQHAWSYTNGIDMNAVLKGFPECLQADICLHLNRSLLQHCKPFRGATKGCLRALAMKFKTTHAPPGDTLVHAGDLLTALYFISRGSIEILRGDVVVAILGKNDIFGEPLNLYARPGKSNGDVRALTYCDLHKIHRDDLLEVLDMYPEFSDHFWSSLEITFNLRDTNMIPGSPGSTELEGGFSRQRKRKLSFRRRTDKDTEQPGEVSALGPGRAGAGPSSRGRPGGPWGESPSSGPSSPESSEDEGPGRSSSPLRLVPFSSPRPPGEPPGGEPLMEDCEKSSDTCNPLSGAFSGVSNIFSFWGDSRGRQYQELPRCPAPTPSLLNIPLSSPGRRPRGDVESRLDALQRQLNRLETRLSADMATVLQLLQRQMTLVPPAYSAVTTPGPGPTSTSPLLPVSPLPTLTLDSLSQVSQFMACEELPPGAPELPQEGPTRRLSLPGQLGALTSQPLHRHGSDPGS"}, "source": "ChEMBL document CHEMBL1137783", "about": "(J Med Chem, 2009)", "target": "Voltage-gated inwardly rectifying potassium channel KCNH2 (Homo sapiens, UniProt Q12809)", "experiment": "Inhibition of human ERG channel", "data": [{"smiles": "O=C1Cc2cc(CCN3CCN(c4nsc5ccccc45)CC3)c(Cl)cc2N1", "note": "[ZIPRASIDONE]", "values": [{"measurement": "pIC50", "value": 6.903}]}]}
